The chains behind the UniProt entries cited, without tags or fusion partners. Where a name states a change or a piece, a line headed by the entry shows the natural chain unless it says otherwise.
UniProt P56817: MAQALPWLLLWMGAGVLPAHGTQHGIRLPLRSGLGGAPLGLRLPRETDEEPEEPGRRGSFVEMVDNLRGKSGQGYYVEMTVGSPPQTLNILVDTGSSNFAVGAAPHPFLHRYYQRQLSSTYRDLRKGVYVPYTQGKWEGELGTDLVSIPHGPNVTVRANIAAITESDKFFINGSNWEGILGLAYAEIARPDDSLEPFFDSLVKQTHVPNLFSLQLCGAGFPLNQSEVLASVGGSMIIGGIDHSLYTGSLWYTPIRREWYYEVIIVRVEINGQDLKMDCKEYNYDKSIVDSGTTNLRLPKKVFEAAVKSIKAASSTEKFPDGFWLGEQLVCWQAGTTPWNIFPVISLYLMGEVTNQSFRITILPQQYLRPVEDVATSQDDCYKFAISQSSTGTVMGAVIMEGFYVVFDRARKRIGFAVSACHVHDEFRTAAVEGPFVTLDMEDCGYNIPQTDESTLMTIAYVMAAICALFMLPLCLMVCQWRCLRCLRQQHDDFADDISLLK

According to ChEMBL document CHEMBL1158445, “Second generation of BACE-1 inhibitors part 2: Optimisation of the non-prime side substituent” (Bioorg Med Chem Lett, 2009):

Molecular target: Beta-secretase 1 (Homo sapiens, UniProt P56817)
Assay: Inhibition of BACE1

CCc1cn2c3c(cc(C(=O)N[C@@H](Cc4ccccc4)[C@H](O)CNCc4cccc(OC)c4)cc13)N(C)S(=O)(=O)CC2
IC50: 2 nM
